According to patent US11053218B2, “3-(1-oxoisoindolin-2-yl)piperidine-2,6-dione derivatives and uses thereof” (Novartis AG, priority 2017, dated 2021):

Tested on: primary human regulatory T cells
Assay: IL-2 production of expanded primary human Treg cells
Format: cell-based
Conditions: purified primary human Treg cells, five donors, FIG. 2

## O=C1CCC(N2Cc3cc(C4CCN(Cc5ccccc5)CC4)ccc3C2=O)C(=O)N1 (stereo not shown) [Compound I-57, 3-(5-(1-benzylpiperidin-4-yl)-1-oxoisoindolin-2-yl)piperidine-2,6-dione]
  Production of IL2 in Treg cells as compared to the control: enhanced
